Assay results reported in patent publication US20120301897A1, “ACETAMINOPHEN-PROTEIN ADDUCT ASSAY DEVICE AND METHOD” (BOARD OF TRUSTEES OF THE UNIVERSITY OF ARKANSAS, priority 2008, published 2012).

Legend:
[1] = Pharmacokinetic analysis of APAP-protein adducts in serum of adolescents and children with APAP overdose (HPLC-EC assay)

What does the source list for “3-(cystein-S-yl) APAP (3-Cys-A)-protein adducts [APAP-protein adducts]”?
time adducts remained in blood after the APAP overdose (adults with ALF): 12 days; mean elimination half-life (serum, adult patients with ALF after APAP overdose, 20 patients): 42 ± 5.04 h; mean ke (elimination rate constant) (serum, adult patients with ALF after APAP overdose, empiric Bayesian estimates, 20 patients with 4 consecutive daily samples): 0.402 ± 0.05 day⁻¹; time adducts were present in blood after the overdose [1]: 9 days; mean (±SD) ke of adducts in serum ([1]; serum): 0.486 ± 0.084 day⁻¹
